Bioassay records (PubChem)
DRD3 agonist: agonists of human D3 dopamine receptor | P35462 | D3R DiscoveRx beta-arrestin cells, luminescence, 90 min | max activation, % | hit rate 0.58% among 410,000 | AID 652048; in the data active means max activation above about 30%; further: 0% is about no effect
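Agonist-mode cell screen: cells plated at 1500/well and incubated overnight at 37 °C, then exposed to library compounds for 90 min at 37 °C. Detection reagent was added for 30–60 min at room temperature, and luminescence was read.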
Mm-Cpn inhibitor: M. maripaludis TRiC chaperonin inhibition | Potency, µM (series often up to 76.9 µM), for inactives: at the top dose activity, negative = inhibition, usual class: inhibitors | purified Mm-Cpn ATPase, ADP Transcreener TR-FRET | AID 504842 | hit rate 0.031% among 330,000; active means well fitted inhibition curve with a large enough effect; inconclusive means small, poorly fitted or top-dose-only effect; further: potency means the concentration at half of the fitted maximal effect; on the % scale 0 is the no-effect control and ±100 the full control effect; nearly all actives have a fitted effect of over 80% in size
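Compound-treated chaperonin, 25 nM final, turns over 10 uM ATP at 37°C for 30 min following a 10 min preincubation; ADP generated competes with ADP-d2 for Eu-cryptate antibody, lowering FRET.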
TSG101-PTAP inh: blocks PTAP/TSG101 interaction to inhibit HIV-1 budding. 340,000 tested, under 10 active. Potency, µM (series often up to 115 µM), without a hit: at the highest dose activity change, negative = inhibition, usual class: inhibitors. Fluorescence polarization, FITC-PTAP peptide / Tsg101 binding. AID 493005. Q99816; active means well fitted inhibition curve with a large enough effect in the main read-out, with a control signal flat, not every such curve was filed as active; inconclusive means small, poorly fitted or top-dose-only effect, or effect the other way, or a change in a side signal; inactive means no such curve, though single readings can be large or run the other way; further: potency means the concentration at half of the fitted maximal effect; % of control where 0% means no effect
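FP read-out: FITC-PTAP peptide, 50 nM final, binding Tsg101 binding domain, 10 uM final; 20 min, r.t.; 10 mM HEPES pH 7.5, 0.15 M NaCl, 0.01% Tween 20, 3 mM EDTA, 0.1 mM TCEP.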
D3 antag: D3 dopamine receptor (human) antagonism; P35462; D3R cells, DiscoveRx beta-arrestin luminescence, antagonist mode; active compounds read low; max response, negative = inhibition, %; hit rate 2.5% among 360,000; AID 652054; in the data active means max response below about -50%; inconclusive means no clear call, values can overlap the other calls; further: on the % scale 0 is the no-effect control and ±100 the full control effect
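Cells plated overnight at 1500 cells/well, then exposed to library compounds with dopamine controls for 90 minutes at 37 degrees C. DiscoveRx reagent added for 30–60 minutes at room temperature; luminescence read, quantitative HTS format.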
Rango dissoc inh: inhibition of RanGTP-driven Rango-importin beta dissociation; O95149+P62826; Biochemical FRET Rango-importin beta, RanGTP-induced dissociation; Potency, µM (doses to about 46.1 µM), for inactives: at the highest dose activity change, negative = inhibition; hit rate 0.071% among 340,000; AID 540253; further: potency means the concentration at half of the fitted maximal effect; % of control where 0% means no effect; nearly all actives have a fitted effect of over 45% in size
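Two FRET readings bracket the reaction: one 5 min after compound meets Rango–importin beta, another 45 min after RanGTP-RCC1 (0.6 uM Ran, 0.2 uM RCC1, 2 mM GTP) is added. Only the second defines inhibition.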
Rango-impB inh: prevents formation of the Rango-importin beta complex. hit rate 0.031% among 340,000. Q14974. Rango CFP/YFP FRET sensor + importin beta, 45 min. Potency, µM (doses to about 92.2 µM), for inactives: top-dose inhibition of complex formation;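 further: potency means the concentration at half of the fitted maximal effect; 0% = DMSO wells and 100% = buffer wells lacking importin beta; nearly all actives have a fitted effect of over 15% in size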
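FRET biosensor (snurportin 1 IBB flanked by EYFP and cerulean), 50 nM, with compound 5 min, then 0.125 microM importin beta in PBS, 1 mM DTT, 0.02% Tween-20, 0.1% BSA. CFP/YFP ratio read after 45 min at room temperature; pre-read flags interference.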
An asterisk follows results filed as active; ? = inconclusive; / = not tested or not shown. Only some compounds are listed: those with a hit (about 2.9% of all), similar ones and a draw of the others. Unless noted, the call rests on the fitted dose curve.

Field names – A = DRD3 agonist; B = Mm-Cpn inhibitor; C = TSG101-PTAP inh; D = D3 antag; E = Rango dissoc inh; F = Rango-impB inh
OC(c1ccccc1)C1CN(Cc2ccccc2)CCC1(O)c1ccccc1 (stereo not given)
  A: -37; B: -1%; C: -1%; D: -59*; E: -1%; F: 7%

N[C@@H](CCC(=O)N[C@@H](CS)C(=O)NCC(=O)O)C(=O)O
  A: -1; B: /; C: /; D: /; E: /; F: /

CC(=O)c1cccc(NC(=O)c2cc(C)nc3c2c(C)nn3-c2cccc(Cl)c2C)c1
  A: 2; B: /; C: /; D: /; E: /; F: /

CCOC(=O)C1CCN(C(=O)CCNS(=O)(=O)c2cc(Br)cnc2N)CC1
  A: 4; B: 1%; C: 1%; D: 1; E: 9%; F: 1%

CCOC(=O)c1cc(-c2csc(-c3ccc(C(C)(C)C)cc3)n2)on1
  A: 32*; B: 1%; C: -3%; D: 6; E: -2%; F: -1%

CCOC(=O)c1cc(-c2csc(-c3ccc(C(F)(F)F)cc3)n2)on1
  A: 11; B: 0%; C: 0%; D: 9; E: 13%; F: 1%

Cc1ccc(-c2cnc(C3CC3)o2)cc1S(=O)(=O)Nc1ccc(F)cc1Cl
  A: -13; B: /; C: /; D: /; E: /; F: /

COc1ccc(-c2nc3cccc(C)n3c2NCc2ccco2)cc1OC
  A: 6; B: -7%; C: -2%; D: -52*; E: 3%; F: 1%

O=c1cc(CN2CCOCC2)c2ccccc2o1
  A: 43*; B: /; C: /; D: 21; E: /; F: /

COc1ccccc1C1CCN(Cc2c(C)[nH]c3ccccc23)CC1
  A: -18; B: 0%; C: 0%; D: -89*; E: ?; F: 3%

COc1ccccc1C1CCN(Cc2cccc3ccccc23)CC1
  A: -47; B: 0%; C: 0%; D: -10; E: -7%; F: 0%

COc1ccccc1C1CCN(Cc2ccc(Cl)c(Cl)c2)CC1
  A: -49; B: -2%; C: 0%; D: -79*; E: -3%; F: 2%

COc1ccccc1C1CCN(Cc2ccc(Cl)cc2Cl)CC1
  A: -18; B: -3%; C: 0%; D: -96*; E: 8%; F: -1%

Cc1ccc(CN2C(=O)C3(c4ccccc42)N(c2cccc(C(F)(F)F)c2)C(=O)CS3(=O)=O)cc1 (stereo not given)
  A: -2; B: /; C: /; D: /; E: /; F: /

CCCN(C(=O)COc1cc(=O)n(CC)c2ccccc12)c1ccc(C(C)C)cc1
  A: -24; B: /; C: /; D: /; E: /; F: /

Cc1cccc(NC(=O)C(NS(=O)(=O)c2cccc3nsnc23)c2ccccc2)c1C (stereo not given)
  A: -10; B: /; C: /; D: /; E: /; F: /

NC(=O)CC(NC(=O)Cc1ccc(Br)cc1)c1ccc(NC2CCN(Cc3ccccc3)CC2)c([N+](=O)[O-])c1 (stereo not given)
  A: -17; B: 1%; C: 2%; D: -16; E: 0%; F: 52µM*

NC(=O)CC(NC(=O)Cc1cccc2ccccc12)c1ccc(NCc2ccccc2)c([N+](=O)[O-])c1 (stereo not given)
  A: -15; B: 0%; C: 1%; D: -51*; E: ?; F: 5%

NC(=O)CC(NC(=O)Cc1cccc2ccccc12)c1ccc(NCc2ccc(F)cc2)c([N+](=O)[O-])c1 (stereo not given)
  A: -35; B: 1%; C: -2%; D: -60*; E: -34%; F: 0%

NC(=O)CC(NC(=O)Cc1cccc2ccccc12)c1ccc(NC2CCCCCCC2)c([N+](=O)[O-])c1 (stereo not given)
  A: -35; B: 3%; C: /; D: -61*; E: 19%; F: -1%

CC1=C(C)N(C)[C@H](c2ccccc2Br)[C@H](O)C1=O
  A: -25; B: /; C: -5%; D: 0; E: -1%; F: -1%

Cc1c(F)cccc1NS(=O)(=O)c1cccs1
  A: -4; B: /; C: /; D: /; E: /; F: /

CN(CC(=O)Nc1cc([N+](=O)[O-])ccc1Cl)Cc1ccc(Br)cc1
  A: -15; B: -3%; C: 1%; D: -85*; E: -9%; F: 0%

Cc1ccsc1CN(C)CC(=O)Nc1ccc([N+](=O)[O-])cc1Cl
  A: -7; B: 1%; C: -3%; D: -8; E: 3%; F: 4%

CC(C)(C)OC(=O)N1CCC(c2c(C(=O)NCC3CCN(C4CCCC4)C3)cnn2-c2ccccc2)CC1 (stereo not given)
  A: 17; B: 1%; C: -4%; D: 11; E: 27%; F: -4%

N#Cc1c(-c2ccccc2)nc(N2CCN(Cc3ccccc3)CC2)[nH]c1=O
  A: -7; B: -3%; C: -6%; D: 2; E: -2%; F: -2%

Cc1nnc(N2CCN(Cc3ccccc3)CC2)[nH]c1=O
  A: -11; B: -6%; C: -2%; D: -54*; E: 13%; F: 3%

Cc1c(C(=O)N2CCCC(C(F)(F)F)C2)oc2ccccc12 (stereo not given)
  A: -12; B: -1%; C: -2%; D: 9; E: -10%; F: 0%

Cc1c(C(=O)N2CC(C)OC(C)C2)oc2ccccc12 (stereo not given)
  A: -1; B: 3%; C: /; D: -72*; E: -9%; F: 1%

O=S(=O)(Nc1cccc(-c2ccc(N3CCOCC3)nn2)c1)c1ccc(F)cc1F
  A: -21; B: /; C: /; D: /; E: /; F: /

CCOc1ccc(CCNC(=O)Cn2nc(CC)n3c(cc4ccccc43)c2=O)cc1
  A: 7; B: /; C: /; D: /; E: /; F: /

CCN(CC)CCNC(=O)c1ccc(NC(=O)Cc2ccc(OC)c(S(=O)(=O)N3CCOCC3)c2)cc1
  A: -20; B: /; C: -1%; D: -24; E: 2%; F: -1%

C=CC(=O)Nc1ccc(CN2C(=O)N(c3c(Cl)c(OC)cc(OC)c3Cl)Cc3cnc(NCCCCN(CC)CC)nc32)cc1
  A: -36; B: -1%; C: 0%; D: -65*; E: 13%; F: 1%

COC(=O)c1cc2ccc(OC)cc2c2cc(OC)c(OC)cc12
  A: 80*; B: -7%; C: 2%; D: 136; E: 0%; F: 1%

O=C(Nc1ccc(Cl)cc1)Nc1ccc(Cl)c(C(F)(F)F)c1
  A: 1; B: /; C: /; D: /; E: /; F: /

COc1ccc(-c2n(CC(=O)OC3CC(C)CCC3C(C)C)c3ccccc3[n+]2C)cc1 (stereo not given)
  A: -27; B: 2%; C: 2%; D: -86*; E: 6%; F: -1%

COc1ccc(-n2c(=O)c3c4c(sc3n(Cc3c(F)cccc3Cl)c2=O)CN(C(C)=O)CC4)cc1OC
  A: -12; B: /; C: /; D: /; E: /; F: /

CC(=O)OCCCNc1cc(Sc2ccc(C)cc2)c2nonc2c1[N+](=O)[O-]
  A: -35; B: 0%; C: 0%; D: -73*; E: 0%; F: -1%

CCCC(=O)OCCNc1cc(SCCC(=O)OC)c2nonc2c1[N+](=O)[O-]
  A: -1; B: -8%; C: -1%; D: 3; E: ?; F: ?

COC(=O)CCSc1cc(NCCOC(C)=O)c([N+](=O)[O-])c2nonc12
  A: -3; B: ?; C: 0%; D: -12; E: -16%; F: ?

CC(=O)OCCNc1cc(Sc2nc3ccccc3[nH]2)c2nonc2c1[N+](=O)[O-]
  A: -28; B: 2%; C: -1%; D: -79*; E: -16%; F: -2%

COc1ccc(Nc2cc(NCCCO)c([N+](=O)[O-])c3nonc23)cc1
  A: -4; B: 1%; C: -2%; D: -9; E: -6%; F: -4%

CC(=O)OCCCNc1cc(Sc2nc3ccccc3s2)c2nonc2c1[N+](=O)[O-]
  A: -17; B: 1%; C: -1%; D: -78*; E: 7%; F: -4%

Cc1ccc(Cl)cc1N1CCN(C(=O)c2cc(S(=O)(=O)N3CCCCCC3)cn2C)CC1
  A: -3; B: /; C: /; D: /; E: /; F: /
